# Antibody variant affinities, Ab-95 light chain, assay 2

From the AlphaSeq antibody data of Engelhart et al. 2022 (doi:10.1038/s41597-022-01779-4), copy in the FLAb collection.

The target is the same throughout: PDVDLGDISGINAS, from the HR2 region of SARS-CoV-2 spike.

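The parent was found by panning a naive human phage display library on the peptide. Library AAYL52 holds single substitutions and randomly drawn double and triple substitutions in the CDRs. The assay is AlphaSeq: two haploid yeast populations carry antibody and antigen on their surface. Pairs that bind mate more often; barcode pairs of the diploids are counted by sequencing. Read counts were normalised to the haploid input and turned into Kd by a linear fit to BCL2-family pairs of known affinity, for each replicate. There are three technical replicates.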

Each scFv is VH, a 15-residue (Gly4Ser)3 linker, VL, as in the parent Ab-95, and differs from it in the CDRs of the light chain only.
VH: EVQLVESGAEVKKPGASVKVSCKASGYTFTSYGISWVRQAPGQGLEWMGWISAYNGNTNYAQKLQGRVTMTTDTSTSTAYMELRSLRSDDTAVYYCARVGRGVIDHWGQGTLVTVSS
VL: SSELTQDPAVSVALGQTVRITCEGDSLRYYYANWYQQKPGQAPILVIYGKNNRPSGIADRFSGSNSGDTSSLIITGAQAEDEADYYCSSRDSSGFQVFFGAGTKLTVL

Changes read parent residue, position, new residue, counted from the first residue of the VL shown. Every variant below is changed at Y31 of the VL (sequential numbering). Scale: log10 of Kd in nM, estimated from mating counts; low values are strong binders. A mean of the replicates is given; it leaves out those without a signal. "no signal" means that the variant was in the library but no mating with the target was seen in any replicate; the authors take this as a sign of poor binding, and no number exists. In this assay the parent's reference entry averaged 2.31; its copy inside this library read 2.25. As a blank, each scFv also met three strains without target: over library AAYL52, 28% of these pairings were detected, typically at 3.91 and seldom below 2.90.

Variant R28G/Y31I/N52E showed 2.98 (3 of 3 replicates). With G24W/Y31G/A32F the result was no signal (0 of 3 replicates). Variant D25W/Y31H/P54Q showed 3.22 (3 of 3 replicates). Variant D25V/Y31Q showed 1.42 (3 of 3 replicates). For S26K/Y31G/N52G, the assay gave 4.18 (3 of 3 replicates). With Y31Q/G49W/R90K the result was 4.68 (1 of 3 replicates). Variant Y31V/S89E/S92L showed 2.67 (3 of 3 replicates).

Variant Y31E/Q96K gave 1.04 (3 of 3 replicates). With D25V/Y31R/S55L the result was 2.51 (3 of 3 replicates). Variant Y30N/Y31M/G49D gave 0.67 (3 of 3 replicates). With R28F/Y31I/S55A the result was 3.54 (3 of 3 replicates). For Y31C/S89V/V97E, the assay gave 2.47 (3 of 3 replicates). Variant Y31N showed 0.84 (3 of 3 replicates). For Y31I/R53A/S88N, the assay gave 4.75 (1 of 3 replicates).

Variant Y31R/Q96M showed 2.87 (3 of 3 replicates). For Y31T/A32Q/S92V, the assay gave 4.12 (1 of 3 replicates). Variant Y30E/Y31E/S88P showed 3.78 (2 of 3 replicates). For Y30L/Y31S/F98N, the assay gave 2.50 (3 of 3 replicates). For Y31D/F98H, the assay gave 0.97 (3 of 3 replicates). Variant Y31F/V97T gave 3.07 (3 of 3 replicates). For S26Y/Y31K/Q96P, the assay gave 3.42 (3 of 3 replicates).

With R28V/Y31I/Q96H the result was 4.04 (2 of 3 replicates). With R28H/Y31F/P54R the result was 3.35 (3 of 3 replicates). For Y30V/Y31P/R53L, the assay gave 2.28 (3 of 3 replicates). For E23V/Y31E/R90Y, the assay gave 3.54 (2 of 3 replicates). For Y31A/S89P/D91H, the assay gave 1.72 (3 of 3 replicates). With Y31E/D91R the result was 2.52 (3 of 3 replicates). For Y31Q/S55E/R90A, the assay gave 1.46 (3 of 3 replicates).

Variant E23W/Y31H/G94D showed 2.37 (3 of 3 replicates). Variant Y31L/N33R/G94T showed 3.76 (1 of 3 replicates). With D25M/Y31S/A32Y the result was 3.56 (2 of 3 replicates). Variant Y31D/N51K gave 1.52 (3 of 3 replicates). Variant Y31M/R53S/F95A gave 2.57 (3 of 3 replicates). Variant Y31I/N52D gave 4.35 (2 of 3 replicates). Variant D25V/Y31G showed 1.76 (3 of 3 replicates).

For Y31H/Q96H/F98V, the assay gave 3.39 (2 of 3 replicates). With Y31K/R53H/S88P the result was 3.21 (2 of 3 replicates). Variant Y31I/P54V/V97Q gave 4.38 (1 of 3 replicates). Variant Y31H/P54I/F95G showed 2.91 (3 of 3 replicates). Variant G24L/Y31I gave 2.80 (3 of 3 replicates). For Y30S/Y31V/P54S, the assay gave 2.86 (3 of 3 replicates). For Y31D/S55H/V97G, the assay gave 0.94 (3 of 3 replicates).

Excerpt, the first 4 entries:

For R28G/Y31I/N52E, the assay gave 2.98 (3 of 3 replicates).
For G24W/Y31G/A32F, the assay gave no signal (0 of 3 replicates).
For D25W/Y31H/P54Q, the assay gave 3.22 (3 of 3 replicates).
For D25V/Y31Q, the assay gave 1.42 (3 of 3 replicates).